SMILES strings stand for the structures.

Sequences of proteins named here, by UniProt entry; tags and fusion partners are left off. A change or cut given only in a name is not applied to a line headed by its entry.
UniProt P41144: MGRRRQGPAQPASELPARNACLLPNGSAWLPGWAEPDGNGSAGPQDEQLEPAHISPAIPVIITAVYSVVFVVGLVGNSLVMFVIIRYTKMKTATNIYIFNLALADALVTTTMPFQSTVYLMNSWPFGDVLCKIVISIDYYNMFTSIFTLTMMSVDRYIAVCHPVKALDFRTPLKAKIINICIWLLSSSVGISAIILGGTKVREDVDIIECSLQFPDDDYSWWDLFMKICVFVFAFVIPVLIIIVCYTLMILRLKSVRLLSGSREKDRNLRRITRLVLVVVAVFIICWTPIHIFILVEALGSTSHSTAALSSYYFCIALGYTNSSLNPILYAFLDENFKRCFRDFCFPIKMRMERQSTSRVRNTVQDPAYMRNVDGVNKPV
UniProt P97266, whole entry, looked up: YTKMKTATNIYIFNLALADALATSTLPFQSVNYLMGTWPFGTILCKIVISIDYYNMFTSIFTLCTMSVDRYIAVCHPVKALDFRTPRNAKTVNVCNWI

These results are taken from ChEMBL document CHEMBL1138973, “Opiate receptor binding properties of morphine-, dihydromorphine-, and codeine 6-O-sulfate ester congeners” (Bioorg Med Chem Lett, 2006).

Assay [1] deals with Kappa-type opioid receptor (Cavia porcellus, UniProt P41144).
A further assay concerns the target Mu-type opioid receptor (Cavia porcellus, UniProt P97266).

Consider `CN(C(=O)Cc1ccccc1)[C@H]1CC[C@@]2(CCCO2)C[C@@H]1N1CCCC1`, for which the Ki (in general, the dissociation constant of the complex between target and ligand, obtained from inhibition or displacement) in assay [1] is 0.7 nM; at Mu-type opioid receptor, 692 nM.
